Results: US20240182456A1, “2-((4-((S)-2-(4-CHLORO-2-FLUOROPHENYL)-2-METHYLBENZO[D][1,3]DIOXOL-4-YL)PIPERIDIN-1-YL)METHYL)-1-(((S)-OXETAN-2-YL)METHYL)-1H-IMIDAZOLE DERIVATIVES AS ACTIVATORS OF THE GLP1 RECEPTOR FOR THE TREATMENT OF OBESITY” (Novartis AG, priority 2021, published 2024)

Protein sequences, listed by entry. Tags and fused reporters are not part of them. Residues count along the entry.
UniProt P43220, 24-463 limits assumed: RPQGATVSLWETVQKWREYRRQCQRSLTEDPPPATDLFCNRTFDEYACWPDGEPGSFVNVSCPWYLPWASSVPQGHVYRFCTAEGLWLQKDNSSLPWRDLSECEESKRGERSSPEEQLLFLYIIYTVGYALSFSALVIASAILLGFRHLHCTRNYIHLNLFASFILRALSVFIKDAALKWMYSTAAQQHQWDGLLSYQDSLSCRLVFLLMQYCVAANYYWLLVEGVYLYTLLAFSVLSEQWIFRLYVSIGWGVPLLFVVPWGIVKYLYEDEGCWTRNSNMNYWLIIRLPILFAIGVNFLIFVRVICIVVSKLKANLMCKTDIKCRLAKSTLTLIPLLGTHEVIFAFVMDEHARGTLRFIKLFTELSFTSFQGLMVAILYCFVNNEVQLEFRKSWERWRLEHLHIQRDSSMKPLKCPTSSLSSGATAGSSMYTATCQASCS

Key:
[1] = molecular target: human GLP1R (Homo sapiens, UniProt P43220); experiment: Human GLP1R DERET internalization assay; conditions: HEK293-SNAP-hGLP1R-GloSensor cells
[2] = molecular target: human GLP1R (hGLP1R) (Homo sapiens, UniProt P43220); experiment: Human GLP1R cAMP agonist assay (GloSensor); format: cell-based; conditions: HEK293-SNAP-hGLP1R-GloSensor cells
Protocol: Compounds 1 to 31 were tested in the following cellular assays that measure the intracellular cAMP concentration, beta-arrestin recruitment and receptor internalization. The cAMP is generated by the activation of GLP1R. The cAMP data obtained is shown in Table 1 (where S.E.M. is included, mean n=3 independent experiments+/−S.E.M). Beta-arrestin is recruited upon activation of GLP1R and the data obtained are shown in Table 2 (mean n=2 independent experiments, +/−S.D). The extent to which the GLP1R is internalized into the cell and away from the plasma membrane following activation is also shown in Table 2 (mean n=2 independent experiments, +/−S.D). EC50 for each assay is defined as the concentration of the compound that leads to half of the maximum response (after baseline correction). […]
The agonist activity of compounds was determined using the GloSensor™ cAMP Assay (Promega Corp.), which measures changes in the intracellular concentration of cAMP after ligand activation of GPCRs. […] Binding to cAMP causes conformational changes that promote large increases in light output, which can be measured by a luminescence detector. […] The EC50 value was represented by the AC50 value calculated from Helios in μM. Emax is the maximal activity detected within the concentration range, derived from the fitted curve. […]

## Cc1nc(CN2CCC(c3cccc4c3OC(C)(c3ccc(Cl)cc3F)C4)CC2)n(C[C@@H]2CCO2)c1/C=C/C(=O)O (single isomer, unassigned)
[1]; relative to GLP1(7-36)
  DERET Internalization assay Emax: 2%
[1]; read-out: DERET Internalization assay EC50 Mean, mean n=2
  EC50: > 30000 nM
[2]; cAMP, normalized to GLP1(7-36) maximum response
  Emax mean: 104%
[2]; read-out: EC50 mean, intracellular cAMP, mean n=3 where SEM is given
  EC50: 1.69 nM
